System: rabbit's brain hemispheres
Assay: Amplitude of induced potential in brain hemispheres (acoustic irritation)
Format: in vivo
Settings: rabbits
Experimental: In the third series of experiments the effect of the preparation according to the present invention on the functional brain asymmetry was studied. The experiments were carried out on rabbits with electrodes implanted in the brain. The electrodes under nembutal narcosis (40 mg/kg) were implanted strictly symmetrically into the bearing zone of the temporal cortex of the right and left hemispheres on its lateral surface, whereas the indifferent electrode was secured to the nasal bones of a rabbit's skull. The acoustic irritation was applied through earphones. As the acoustic irritation a sound click caused by a square-shaped pulse from an electronic stimulator with a frequency of 0.1-0.2 Hz was used; the click intensity was adjusted within the range of from 5 to 80 Db. The amplification of the taken-off biopotentials was effected on an electroencephalograph; the induced potentials were obtained by means of an analyzer. 100 experiments on 20 animals were thus conducted; the interval between experiments on one animal was 7 days. The amplitude and form of the induced potential were determined. The asymmetry factor (Kas) was calculated by the formula: [formula] Ar --amplitude of the induced potential of the […] hemisphere, μV;
A1 --amplitude of the induced potential of the left hemisphere.
The test preparations were administered hypodermally in the form of 0.5-1.5% aqueous solutions 20 minutes before the beginning of the measurements.

## COc1ccc2c3c1O[C@H]1C[C@@H](O)C=C[C@@]31CCN(C)C2 [Galantamine]
Hypodermally 3 mg/kg
  Change of amplitude of induced potential, % of the control, left hemisphere: 150%
  Change of amplitude of induced potential, % of the control, right hemisphere: 165%
  Mean value of amplitude of induced potential, %: 160%

## CNC(=O)Oc1ccc2c(c1)[C@]1(C)CCN(C)[C@@H]1N2C [Physostigmine, physostigmine]
  amplitude of induced potentials (in words): increased amplitude of the induced potential
Hypodermally 0.04 mg/kg
  Change of amplitude of induced potential, % of the control, left hemisphere: 115%
  Change of amplitude of induced potential, % of the control, right hemisphere: 175%
  Mean value of amplitude of induced potential, %: 145%

## NC(=O)CN1CCCC1=O [Pyracetam, pyracetam]
Hypodermally 100 mg/kg
  Change of amplitude of induced potential, % of the control, left hemisphere: 110%
  Change of amplitude of induced potential, % of the control, right hemisphere: 105%
  Mean value of amplitude of induced potential, %: 107%

— patent US4735953A, “Pharmaceutical preparation for learning stimulation and memory improvement” (priority 1986, dated 1988)
